pIC50: −log10 of the molar value.
Target: DLK (Homo sapiens (Human), UniProt Q12852)
Assay: DLK biochemical assay (TR-FRET, MKK7 phosphorylation)
Procedure: DLK assay is a biochemical assay format designed to screen for inhibitors of DLK. Enzymatic activity of DLK was measured by monitoring phosphorylation of the physiological substrate MKK7 (MAP2K7, Dual specificity mitogen-activated protein kinase kinase 7). Phosphorylation was detected by a TR-FRET system whereby His-tagged MKK7 was labeled by a XL665-labeled anti-His antibody (FRET acceptor, emission 665 nm). DLK phosphorylates MKK7 at T275/S277, which was detected by an Eu-labeled anti-phospho-MKK7 (T275/S277) antibody (F RET donor, excitation 340 nm). Phosphorylation of MKK7 results in an increased TR-FRET signal (Ratio XL665-channel/Eu-channel) and inhibition of enzymatic activity of DLK decreases the TR-FRET signal.
Assay Protocol for 1536 MTP format: test compounds were predispensed (60 nl) in test plates; +3 μl DLK solution (10 nM DLK, catalytic domain, Carna Biosiences, 0.6 mM DTT in assay buffer); +2 μl substrate solution (15 nM MKK7, LDB; 60 μM ATP; 0.4 mM DTT in assay buffer); 90 min incubation at RT; +2 μl detection mix (5 nM XL665-labeled anti-His antibody, Cisbio; 0.1 nM Eu-labeled anti-phospho-MKK7 (T275/S277), Cisbio/Millipore in detection buffer); 16 h incubation at 37° C.; endpoint measurement BMG (HTRF). […]

Protein sequences, listed by entry. Tags and fused reporters are not part of them. Residues count along the entry.
UniProt Q12852, 1-520: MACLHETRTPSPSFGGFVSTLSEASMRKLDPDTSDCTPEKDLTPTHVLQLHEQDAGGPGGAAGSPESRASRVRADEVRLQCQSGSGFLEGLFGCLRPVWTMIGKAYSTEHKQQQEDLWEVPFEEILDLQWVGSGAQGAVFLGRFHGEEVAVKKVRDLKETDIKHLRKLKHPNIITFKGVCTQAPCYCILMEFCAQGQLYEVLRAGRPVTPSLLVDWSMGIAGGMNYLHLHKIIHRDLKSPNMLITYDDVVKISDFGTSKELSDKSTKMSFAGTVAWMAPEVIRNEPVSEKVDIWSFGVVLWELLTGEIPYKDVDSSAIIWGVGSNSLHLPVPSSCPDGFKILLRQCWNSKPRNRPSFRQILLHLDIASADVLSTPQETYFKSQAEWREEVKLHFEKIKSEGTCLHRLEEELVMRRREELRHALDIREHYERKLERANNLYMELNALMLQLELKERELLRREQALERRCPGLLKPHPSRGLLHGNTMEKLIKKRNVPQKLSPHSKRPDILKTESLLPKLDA

**Q.** How did the pIC50 turn out when `CC(C)NC(=O)c1cc(-c2csc(C(=O)NCc3ccc(F)cc3)c2)cn2ncnc12` [Compound 389] was run?
**A.** < 4.52

— US20230382904A1, “SUBSTITUTED 4-([1,2,4]TRIAZOLO[1,5-a]PYRIDIN-6-YL)THIOPHENE-2-CARBOXAMIDE DERIVATIVES AND USE THEREOF” (The Johns Hopkins University, priority 2020, published 2023)
